# Antibody variant affinities, Ab-14 heavy chain, assay B

Target: peptide PDVDLGDISGINAS, taken from heptad repeat 2 (HR2) of SARS-CoV-2 spike.

The variants keep the light chain, the linker and the frameworks of Ab-14 (scFv order VH, a 15-residue (Gly4Ser)3 linker, VL).
VH: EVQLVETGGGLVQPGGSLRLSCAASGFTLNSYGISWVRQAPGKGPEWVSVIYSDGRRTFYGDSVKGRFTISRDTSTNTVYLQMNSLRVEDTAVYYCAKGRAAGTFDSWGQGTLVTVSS
VL: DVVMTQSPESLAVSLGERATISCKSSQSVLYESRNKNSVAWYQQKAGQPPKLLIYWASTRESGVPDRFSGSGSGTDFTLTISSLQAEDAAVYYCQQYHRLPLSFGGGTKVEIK

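The parent was found by panning a naive human phage display library on the peptide. These sequences belong to a second round, designed from the earlier measurements on random variants of the parent. Several design methods are mixed in this list. In AlphaSeq, yeast of one mating type display the scFv and yeast of the other type display the target. Binding brings cells together so that they mate, and sequencing counts the barcode pairs among the diploids. Each replicate has its own calibration line, from reference interactions of the BCL2 family. Each pool was mated in six replicate cultures.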

The parent's heavy chain CDRs are GFTLNSYGIS, VIYSDGRRTFYGDSVK, GRAAGTFDS; each variant's own CDRs replace them letter for letter. Numbers give log10(Kd / nM), so 0 is 1 nM and 3 is 1 µM. Smaller is tighter. A mean of the replicates is given; it leaves out those without a signal. "no signal" means that the variant was in the library but no mating with the target was seen in any replicate; the authors take this as a sign of poor binding, and no number exists.

| CDR-H1 | CDR-H2 | CDR-H3 | mean log10 Kd (nM) | detected |
|---|---|---|---|---|
| GFELNSYGIS | VIYSDGRRTFYQDSVK | GKAAGTFDS | 0.83 | 6/6 |
| GFDLNEYGIS | VIYADGRRTFYADSVK | GEIAGTFKL | -0.50 | 6/6 |
| GFDLDEYGIS | VIYADGRRTFYIDSVK | GETAGTFDM | -0.20 | 6/6 |
| GFDLDEYGIS | VIYADGVRTAYSDSVK | GNVAGTFDV | 0.06 | 6/6 |
| GFTLNSYPIS | VIYSDGRRTFYGDSVK | GRAAGLFDS | no signal | 0/6 |
| GFGLNSYGIS | VIYSDGRRTFYSDSVK | GQAAGTFDS | 0.55 | 6/6 |
| GFDLEEYGIS | VIYADGMRQYAIDNVK | GEISGKGKT | no signal | 0/6 |
| GFDLNEYGIS | VIYADGMRTAYSDNVK | GENAGTFDI | 1.25 | 6/6 |
| GFPLNDYGIS | VIYSDGRRTFYGDSVK | GRTAGTFDA | 0.77 | 6/6 |
| GFDLNNYGIS | VIYSDGKRTFYGDSVK | GRTAGTFDS | -0.01 | 6/6 |
| GFQLNSYGIS | VIYSDGRRTFYGLSVK | GRAAGTFDS | no signal | 0/6 |
| GFTLNDYGIS | VIYSDGLRTMYIDSVK | GRAAGTFDS | 0.57 | 6/6 |
| GFTLNSYGIS | VIYSDGRRAFYIDSVK | GRAAGCFDS | no signal | 0/6 |
| GFDLNEYGIS | VIYADGMRTFYTDSVK | GQLAGTFDS | -0.54 | 6/6 |
| QPTLNSYGIS | VIYSDGRRTFYTDDVK | GRAAGTFDS | no signal | 0/6 |
| GFDLNEYGIS | VIYADGVRTFYVDSVK | GVNAGTFDS | 1.41 | 1/6 |
| GFDLNSYGIS | VIYSDGRRTFYADSVK | GQAAGTFDD | 1.39 | 3/6 |
| GFDLDEYGIS | VIYADGMRTAYTDSVK | GNNAGTFDV | -0.55 | 6/6 |
| GKDLNEQGIS | VIYADGTRTAYANTVK | GEIAGAFPI | no signal | 0/6 |
| GDDLEEYGIS | VIYADGMRTYYSDQVK | GNVNGTFFD | no signal | 0/6 |
| GFTLNSYGIS | VIYSDGRRTQYGDSVK | GKAAGTFPS | no signal | 0/6 |
| GFDLNEYGIS | VIYADGKRTAYVDSVK | GNVAGTFDV | -0.57 | 6/6 |
| GFNLNEYGIS | VIYADGRRTFYTDDVK | GEMAGTFDL | -0.68 | 6/6 |
| GFDLNEYGIS | VIYADGRRTFYSDSVK | GENGGTFDM | -0.11 | 6/6 |
| GFDLNEYGIS | VIYADGTRTAYADSVK | GENAGTFDV | 0.02 | 6/6 |
| GFTLNEYGIS | VIYSDGRRTFYDDSVK | GRIAGTFDS | -0.46 | 6/6 |
| GNTLNEYGIS | VIYSDGRRTFYTDSVK | GRMAGTFDS | 0.34 | 6/6 |
| HFDLNSYGIS | VIYSDGRRTAYGDSVK | GRAAGTFDS | 0.72 | 6/6 |
| GFDIDEQGIS | VIYADGQRKAYTDNVK | GNSMGMTVA | no signal | 0/6 |
| GFTLNEYGIS | VIYSDGRRTFYADSVK | GRNAGTFDT | -0.26 | 6/6 |
| GFDLNSYGIS | VIYSDGRRTFYGDSVK | GQAAGTFDD | 0.93 | 6/6 |
| GFNLDEYGIS | VIYADGRRTFYADSVK | GQVAGTFDT | -0.84 | 6/6 |
| GFDLEEYGIS | VIYADGMRTAYADSVK | GETAGTFDV | -0.32 | 6/6 |
| GFTLNSYGIS | VIYSDGRRTFYIDSVK | GQVAGKFDS | no signal | 0/6 |
| GFSLNSYGIS | VIYSDGRRTFYADDVK | GQAAGTFDK | -0.11 | 6/6 |

Further variants, results first:

| mean log10 Kd (nM) | detected | CDR-H1 | CDR-H2 | CDR-H3 |
|---|---|---|---|---|
| no signal | 0/6 | GFTLNEYGIS | VIYSDGRRTFYGDSVK | GRAAVTFDA |
| 0.71 | 6/6 | GFSLNAYGIS | VIYSDGRRTFYGDSVK | GRTAGTFDA |
| no signal | 0/6 | GFTLNDYGIS | VIYSDGRRTAYGDQVK | RRMAGTFDS |
| 1.75 | 3/6 | GFTLNEYGIS | VIYSDGRRTFYGDSVK | GRTAGTFDW |
| no signal | 0/6 | GFTLNSYGIS | VDYSDGRRTFYDDSVK | GTAADTFDS |
| -0.56 | 6/6 | GFDLEDYGIS | VIYADGRRTAYIDSVK | GETAGTFDS |
| -0.05 | 6/6 | GFDLNEYGIS | VIYADGMRTFYADNVK | GENAGTFDV |
| no signal | 0/6 | GFTLNSYGIS | VIYADGRRTFYGDQVK | GRAAGTFKL |
| no signal | 0/6 | GFTGNHYGIS | VIRSDGRRTQYIDHVK | GRAAGTFDS |
| 0.03 | 1/6 | QFTLNSYGIS | VIYSDGRRTFYDDSVK | GQLAGTFDS |
| no signal | 0/6 | GFDLNEYGIS | VIYADGMRQRYAQNFK | GYNSSDLTV |
| -0.69 | 6/6 | GFNLDEYGIS | VIYADGMRTAYADSVK | GEVAGTFDQ |
| -0.33 | 5/6 | GFDLNEYGIS | VIYADGRRTFYTDSVK | GEVAGTFDA |
| no signal | 0/6 | GFSLNWYGIS | VIYSDGRRTFYIDSVK | GRQAGTFDS |
| -0.49 | 6/6 | GFDLNEYGIS | VIYADGQRTAYVDSVK | GNVAGTFDL |
| 1.57 | 4/6 | GFHLNEFGIS | VIYADGLRMHYANSVK | GEMAGTFTT |
| 0.91 | 1/6 | GDSLEEYGIS | VIYADGKRKAYKNKAK | GQVAGYFDV |
| -0.58 | 6/6 | GFDLNEYGIS | VIYADGKRTAYSDSVK | GEVAGTFDI |
| 1.89 | 2/6 | GFGLNSYGIS | VIYSDGRRTFYADSVK | GEAAGTMDS |
| 0.60 | 6/6 | GFELNDYGIS | VIYSDGRRTFYVDSVK | GRTAGTFDS |
| -0.11 | 6/6 | GFNLDEYGIS | VIYADGMRTAYTDSVK | GNVAGTFDI |
| -0.70 | 5/6 | GFDLNEYGIS | VIYADGMRTYYADSVK | GNTAGTFDL |
| no signal | 0/6 | GFNLDEYGIS | VIYADGRRTVYTDSVK | GRYGVYIAY |
| 0.30 | 6/6 | GFDLNSYGIS | VIYSDGRRTFYGDSVK | GKTAGTFDE |
| 0.51 | 6/6 | GFTLNSYGIS | VIYSDGRRTFYSDSVK | GHAAGTFDS |
| 1.31 | 2/6 | GFKLNSYGIS | VIYSDGRRTFYKDSVK | GQLAGTFDS |
| no signal | 0/6 | GFTLKSYGIS | VIYSDGRRTFYGDSVK | GRAAATFDS |
| 0.41 | 6/6 | GFTLNEYGIS | VIYSDGKRTFYSDSVK | GKAAGTFDS |
| 2.83 | 1/6 | GFTLNSYGIS | VIYSDGRRTFYGDSVK | GEAAGTFRS |
| 1.46 | 1/6 | GFDVDEFGIS | VIYADGFRTSYAADVK | GSQVGNGLV |
| -0.57 | 6/6 | GFDLNEYGIS | VIYADGVRTFYVDSVK | GETAGTFDT |
| no signal | 0/6 | GFQLNSYGIS | VIYSDGRRTFYGDSVE | GQAADTFDS |
| -0.10 | 6/6 | GFSLNSYGIS | VIYSDGRRTFYSDSVK | GEAAGTFDA |
| no signal | 0/6 | GFTLNSYGIS | VIYADGRRTFYGDSVK | GRAAYTNKS |
| 1.32 | 6/6 | GFTLDSYGIS | VIYSDGRRTFYGDSVK | GRVAGTFDR |

9 of these entries, quoted again:

| CDR-H1 | CDR-H2 | CDR-H3 | mean log10 Kd (nM) | detected |
|---|---|---|---|---|
| GFTLNEYGIS | VIYSDGRRTFYDDSVK | GRIAGTFDS | -0.46 | 6/6 |
| GFELNDYGIS | VIYSDGRRTFYVDSVK | GRTAGTFDS | 0.60 | 6/6 |
| GFHLNEFGIS | VIYADGLRMHYANSVK | GEMAGTFTT | 1.57 | 4/6 |
| GFDLNEYGIS | VIYADGMRTFYTDSVK | GQLAGTFDS | -0.54 | 6/6 |
| GFDLNSYGIS | VIYSDGRRTFYGDSVK | GQAAGTFDD | 0.93 | 6/6 |
| GFTLNSYGIS | VDYSDGRRTFYDDSVK | GTAADTFDS | no signal | 0/6 |
| GFSLNSYGIS | VIYSDGRRTFYSDSVK | GEAAGTFDA | -0.10 | 6/6 |
| QPTLNSYGIS | VIYSDGRRTFYTDDVK | GRAAGTFDS | no signal | 0/6 |
| GFDLNEYGIS | VIYADGMRTFYADNVK | GENAGTFDV | -0.05 | 6/6 |

Of ten entries with the parent sequence, four were seen in most replicates (averages 0.34 to 2.37), three in one and three in none, so single entries are noisy. As a blank, each scFv also met three strains without target: over all heavy chain designs, 1% of these pairings were detected, typically at 2.08 and seldom below 0.84. Values of this round are not directly comparable with the first-round values of the same sequences. The authors averaged sequences with at least three values out of six and counted those with two or fewer as poor binders.

The measurements come from Li et al. 2023 (doi:10.1038/s41467-023-39022-2) through the FLAb antibody collection.